Yeast mating assay 2: variants of the scFv Ab-91

The target is the same throughout: PDVDLGDISGINAS, from the HR2 region of SARS-CoV-2 spike.

The variants keep the light chain, the linker and the frameworks of Ab-91 (scFv order VL, the linker GGGGSGGGGSGGGGS, VH).
VL: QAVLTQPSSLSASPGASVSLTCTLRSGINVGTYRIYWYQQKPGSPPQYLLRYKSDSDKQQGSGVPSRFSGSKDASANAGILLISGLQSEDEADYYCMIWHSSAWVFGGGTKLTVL
VH: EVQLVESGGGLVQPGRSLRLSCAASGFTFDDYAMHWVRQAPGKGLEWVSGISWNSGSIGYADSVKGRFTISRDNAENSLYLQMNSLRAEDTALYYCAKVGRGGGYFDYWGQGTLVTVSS

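Phage display of a naive human antibody library on the peptide gave the parent. Library AAYL51 holds single substitutions and randomly drawn double and triple substitutions in the CDRs. AlphaSeq pools MATa yeast showing the antibodies with MATalpha yeast showing the peptide. Pairs that bind mate more often; barcode pairs of the diploids are counted by sequencing. A regression on co-assayed BCL2-family reference pairs converts the normalised counts of each replicate to an apparent Kd. The assay was run in three technical replicates.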

Positions count from residue 1 of the parent VH; T28N puts N in place of T. Numbers give log10(Kd / nM), so 0 is 1 nM and 3 is 1 µM. Smaller is tighter. A mean of the replicates is given; it leaves out those without a signal. "ND" marks a missing value. The strain was present, yet no cells mated with the target were sequenced in that replicate, which points to weak or no binding. In this assay the parent's reference entry averaged 1.86; its copy inside this library read 0.88. Empty control strains, which show no peptide, gave a signal in 21% of pairings with library AAYL51; the median was 4.54 and 95% of these signals were weaker than 3.26. No background was subtracted. The control count says in how many pairings with the empty strains this scFv gave a signal, with their mean in brackets.

changes,log10 Kd (nM) by replicate,"log10 Kd (nM), mean",control signals
T28N+G104L+Y108C,3.72 ND ND,3.72,1 of 9 (3.06)
D30K+W53V+I58R,1.60 1.40 0.97,1.33,0 of 9
G26Q+G56D+V99P,4.52 ND ND,4.52,3 of 9 (4.69)
A33E+Y60Q+Y108E,3.24 3.71 ND,3.48,2 of 9 (3.82)
M34F+I58L+V99D,ND ND ND,ND,2 of 9 (4.28)
Y60M+G100A,ND ND 4.94,4.94,6 of 9 (4.67)
T28M+D31T+I51A,4.30 ND ND,4.30,1 of 9 (3.75)
Y60P+G104N+F106L,5.65 5.44 5.55,5.55,4 of 9 (5.03)
S55H+G56W+G59A,4.14 4.45 4.97,4.52,4 of 9 (4.54)
F27D+G50S+W53K,ND ND ND,ND,1 of 9 (3.30)
K65Y+G104N+D107G,ND ND ND,ND,1 of 9 (3.01)
S55F+K65E+Y108E,ND ND ND,ND,0 of 9
D31G+H35Y+I51W,ND ND ND,ND,0 of 9
W53P+I58M+G104C,ND ND ND,ND,0 of 9
D30L+I51W+S52H,4.39 5.39 5.24,5.00,5 of 9 (4.92)
D31M,0.81 0.81 0.14,0.59,0 of 9
G26N+Y32W+W53T,ND ND ND,ND,1 of 9 (4.86)
Y32I+G56M+R101N,ND ND ND,ND,0 of 9
I58C+S63T+Y108D,ND 4.24 ND,4.24,1 of 9 (2.51)
D30T+M34Q+K65L,4.35 4.31 4.76,4.47,1 of 9 (3.89)
N54V+G59M+V64Q,4.66 6.44 5.23,5.45,3 of 9 (5.14)
F29K+I51V+K65S,5.31 4.07 ND,4.69,4 of 9 (5.47)
A61H+G103A+G104Q,ND ND ND,ND,2 of 9 (4.58)
D30L+G50Q+G59K,ND ND ND,ND,0 of 9
G50Y+Y60D,ND ND ND,ND,1 of 9 (3.77)
F27W+H35Y+Y108D,4.40 ND ND,4.40,1 of 9 (5.67)
T28K+S55E+Y105W,4.16 ND ND,4.16,4 of 9 (4.36)
D31I+Y60K,ND ND ND,ND,0 of 9
F29V+A61R+R101V,ND ND ND,ND,0 of 9
T28E+D30T+Y32D,4.32 5.71 ND,5.01,4 of 9 (5.16)
M34A+H35T+R101S,ND ND ND,ND,2 of 9 (4.62)
F27T+A61N+Y105A,ND 5.08 ND,5.08,4 of 9 (4.32)
M34F+S63Q,2.53 2.61 2.15,2.43,1 of 9 (2.54)
N54F+S55Q+G104I,ND ND ND,ND,0 of 9
T28P+G59W+F106E,ND 2.96 2.56,2.76,1 of 9 (3.40)
D30E+S55Y,2.16 4.83 ND,3.49,2 of 9 (3.18)
S63K+D107V+Y108T,ND ND ND,ND,1 of 9 (3.16)
G56I+Y60E+F106H,ND ND ND,ND,0 of 9
Y32W+H35A+D62C,2.30 1.96 2.08,2.11,0 of 9
S57N+A61N+V99W,4.17 5.01 ND,4.59,4 of 9 (4.15)
T28I+I51V+G100P,ND 4.34 ND,4.34,2 of 9 (4.05)
A33T+G50S+I51V,ND ND ND,ND,1 of 9 (3.92)
F27Y+I51K+Y60L,ND 4.66 ND,4.66,0 of 9
Y32Q+A33D+N54P,ND ND ND,ND,1 of 9 (1.91)
G59H+S63M+G100R,ND ND 3.88,3.88,1 of 9 (3.65)
G26Y+W53M+G59H,ND ND ND,ND,0 of 9
T28E+I58Q+R101Q,1.67 1.94 1.33,1.65,0 of 9
I51T+S57C+G102C,ND ND ND,ND,1 of 9 (3.83)
R101S+G104L+Y108R,2.73 2.44 1.81,2.33,4 of 9 (4.99)

Excerpt, the first 3 entries:

changes,log10 Kd (nM) by replicate,"log10 Kd (nM), mean",control signals
T28N+G104L+Y108C,3.72 ND ND,3.72,1 of 9 (3.06)
D30K+W53V+I58R,1.60 1.40 0.97,1.33,0 of 9
G26Q+G56D+V99P,4.52 ND ND,4.52,3 of 9 (4.69)

The measurements come from Engelhart et al. 2022 (doi:10.1038/s41597-022-01779-4) through the FLAb antibody collection.